Patent US11117899B2, “[1,2,4]triazolo[1,5-c]pyrimidine derivative as A2A receptor inhibitor” (MEDSHINE DISCOVERY INC., priority 2017, dated 2021)

Biological target: Human adenosine A2A receptor (Homo sapiens, UniProt P29274)
Assay: Human adenosine A2A receptor calcium flux assay
Conditions: read-out: IC50 value; A2A stable CHO cell strain, antagonist mode against agonist NECA at EC80, FLIPR Fluo-4
Experimental: Human adenosine A2A receptor calcium flux assay
A2A stable cell strain was constructed by Shanghai WuXi PharmaTech, and the host cell was CHO.
Fluo-4 Direct Kit (Invitrogen, Cat. No. F10471). After the fluorescent detection reagent (specifically binding to calcium ions and causing an increase in fluorescence signal) in the kit was incubated with the cells for a suitable period of time, the compound was added to stimulate the cells to cause changes in intracellular calcium flux, thereby causing changes in the fluorescent signal, which can reflect the strength of the agonistic or inhibitory activity of the compound.
F12+10% fetal bovine serum+geneticin 300 ug/ml+blasticidin 2 ug/ml Compound dilution buffer: […]
FLIPR instrument software was run. According to the programmed procedure, 10 ul of compound dilution buffer was added to the cell plate and the fluorescence signal was read. 10 ul of the agonist reference compound at the indicated concentration was then added to the cell plate and the fluorescent signal was read. After reading, the data was exported by the “Max-Min”, “Read 90 to Maximum allowed” method in the software, and the EC80 of the A2A cell line was calculated. […]
FLIPR instrument software was run. According to the programmed procedure, 10 μl of the test compounds and reference compound at an indicated concentration was added to the cell plate and the fluorescence signal was read. […]

SMILES	IC50 [nM]
Cc1cc(-c2c(-c3ccccc3)nc(N)n3nc(CO[C@H]4CCOC4)nc23)cc(C(F)(F)F)n1	3.13
Cc1cc(-c2c(-c3ccccc3)nc(N)n3nc(CN(C)C)nc23)cc(C(F)(F)F)n1	3.47
